Earlier results, collected in PubChem BioAssay AID1811 (Shanghai Institute of Organic Chemistry, 2009).

Columns and labels:
Assay in all cases: PubChem AID 1811
ribonuclease a = settings: PDB complex binding affinities from literature; Ki when reported
[1] = target: heat shock protein 90 alpha; settings: PDB complex binding affinities from literature; IC50 when reported
[2] = target: 3-phosphoinositide dependent protein kinase 1; settings: PDB complex binding affinities from literature; IC50 when reported
[3] = target: serine/threonine-protein kinase 6; settings: PDB complex binding affinities from literature; IC50 when reported
hiv-1 protease = settings: PDB complex binding affinities from literature; IC50 when reported
beta-glucosidase a = settings: PDB complex binding affinities from literature; Kd when reported
acetylcholinesterase = settings: PDB complex binding affinities from literature; for IC50: IC50 when reported
[4] = target: glutathione s-transferase; settings: PDB complex binding affinities from literature; Kd when reported
[5] = target: purine nucleoside phosphorylase; settings: PDB complex binding affinities from literature; Kd when reported
1ZXV A = settings: PDB complex binding affinities from literature; Ki when reported
thymidylate kinase = settings: PDB complex binding affinities from literature; Ki when reported
collagenase 3 (mmp-13) = settings: PDB complex binding affinities from literature; IC50 when reported
[6] = target: sialic acid binding protein hi0146; settings: PDB complex binding affinities from literature; Kd when reported
[7] = target: cell division protein kinase 2; settings: PDB complex binding affinities from literature; for IC50: IC50 when reported
trypsinogen = settings: PDB complex binding affinities from literature; Kd when reported
trypsin i = settings: PDB complex binding affinities from literature; Kd when reported
glutamate receptor 2 = settings: PDB complex binding affinities from literature; Ki when reported
dodecin = settings: PDB complex binding affinities from literature; Kd when reported
1PWP A = settings: PDB complex binding affinities from literature; Ki when reported
coagulation factor x = settings: PDB complex binding affinities from literature; Ki when reported
[8] = target: glutathione s-transferase 28 kda; settings: PDB complex binding affinities from literature; Kd when reported
FK506 binding protein = settings: PDB complex binding affinities from literature; Kd when reported
[9] = target: leucine-specific binding protein; settings: PDB complex binding affinities from literature; Kd when reported
beta-lactamase = settings: PDB complex binding affinities from literature; Ki when reported
chitinase b = settings: PDB complex binding affinities from literature; Ki when reported
coagulation factor xa = settings: PDB complex binding affinities from literature; Ki when reported
[10] = target: acetyl-coenzyme a carboxylase; settings: PDB complex binding affinities from literature; Kd when reported
epsin = settings: PDB complex binding affinities from literature; Kd when reported
aiia-like protein = settings: PDB complex binding affinities from literature; Ki when reported
[11] = target: 3-phosphoinositide dependent protein kinase-1; settings: PDB complex binding affinities from literature; Ki when reported
acetyl-coa carboxylase = settings: PDB complex binding affinities from literature; Kd when reported
[12] = target: hypothetical protein ydce; settings: PDB complex binding affinities from literature; Ki when reported

In the case of `O=c1ccn([C@H]2C[C@H](OP(=O)(O)O)[C@@H](CO)O2)c(=O)[nH]1`, the Ki (ribonuclease a) is given as 18 µM.
For `CS(=O)(=O)c1ccc(CN2CCN(c3cn[nH]c3-c3cc(Cl)c(O)cc3O)CC2)cc1`, the IC50 [1] is given as 0.74 µM.
For `CN(C)CCCn1cc(C2=C(c3c[nH]c4ccccc34)C(=O)NC2=O)c2ccccc21`, the IC50 [2] is listed as 9 µM.
In the case of `CO[C@@H](C(=O)N1Cc2[nH]nc(NC(=O)c3ccc(N4CCN(C)CC4)cc3)c2C1)c1ccccc1`, the IC50 [3] is given as 0.013 µM.
In the case of `O=C(N[C@H]1c2ccccc2C[C@H]1O)[C@H](Cc1ccccc1)CC(O)C[C@@H](Cc1ccccc1)C(=O)N[C@H]1c2ccccc2C[C@H]1O`, the IC50 (hiv-1 protease) is listed as 0.00067 µM.
In the case of `O[C@H]1[C@H](O)[C@@H](O)CN2CC[C@H](O)[C@H]12`, the Kd (beta-glucosidase a) is listed as 2.1 µM.
In the case of `c1ccc2c(NCCCCCNc3c4c(nc5ccccc35)CCCC4)c3c(nc2c1)CCCC3`, the IC50 (acetylcholinesterase) is listed as 0.028 µM.
In the case of `CN1CCN(c2ccc(C(=O)Nc3n[nH]c4c3CN(C(=O)Cc3cccs3)C4)cc2)CC1`, the IC50 [3] is given as 0.065 µM.
For `N[C@@H](CCC(=O)N[C@@H](CS)C(=O)NCC(=O)O)C(=O)O`, the Kd [4] is given as 3 µM.
In the case of `Nc1nc2c(ncn2[C@@H]2O[C@H](CO)[C@@H](O)[C@H]2O)c(=O)[nH]1`, the Kd [5] is given as 80 µM.
In the case of `Cn1cc(C2=C(c3cn(CCCN)c4ccccc34)C(=O)NC2=O)c2ccccc21`, the IC50 [2] is listed as 1 µM.
For `O=C(O)CCN1C(=O)/C(=C\c2ccc(-c3ccc(Cl)cc3)o2)SC1=S`, the Ki (1ZXV A) is listed as 0.8 µM.
In the case of `Cc1cn([C@H]2C[C@H](O)[C@@H](CO)O2)c(=O)[nH]c1=O`, the Ki (thymidylate kinase) is listed as 27 µM.
For `CCOCCC1(Oc2ccc(Oc3ccc(F)cc3)cc2)C(=O)NC(=O)NC1=O`, the IC50 (collagenase 3 (mmp-13)) is listed as 0.00087 µM.
In the case of `CC(=O)N[C@H]1[C@H]([C@H](O)[C@H](O)CO)OC(C(=O)O)=C[C@@H]1O`, the Kd [6] is listed as 20 µM.
In the case of `CC(C)C[C@H](NC(=O)[C@H](CCCN=C(N)N)NC(=O)[C@@H](N)CCCN=C(N)N)C(=O)N[C@@H](CC(N)=O)C(=O)N[C@@H](Cc1ccc(F)cc1)C(N)=O`, the IC50 [7] is listed as 0.53 µM.
For `NCc1ccccc1`, the Kd (trypsinogen) is listed as 321 µM and the Kd (trypsin i) is listed as 144 µM.
In the case of `Clc1cccc(Nc2nc(OCC3CCCCC3)c3[nH]cnc3n2)c1`, the IC50 [7] is given as 2.3 µM.
In the case of `CN1CCc2c(-c3ccc(S(=O)(=O)N(C)C)cc3)cc3c(c2C1)NC(=O)/C3=N/O[C@@H](CCO)C(=O)O`, the Ki (glutamate receptor 2) is listed as 0.394 µM.
In the case of `Cc1cc2nc3c(=O)[nH]c(=O)nc-3n(C[C@H](O)[C@H](O)[C@H](O)CO)c2cc1C`, the Kd (dodecin) is listed as 0.0358 µM.
For `CC(=O)N[C@@H](CCCN=C(N)N)C(=O)N[C@@H](CCCN=C(N)N)C(=O)N[C@@H](CC(C)C)C(=O)N[C@@H](CC(N)=O)C(=O)N[C@@H](Cc1cccc(Cl)c1)C(N)=O`, the IC50 [7] is given as 5.6 µM.
For `NS(=O)(=O)c1cccc(Nc2nc(OCC3CCCCC3)c3[nH]cnc3n2)c1`, the IC50 [7] is listed as 0.21 µM.
For `Cc1cc(N)c2cc(NC(=O)Nc3ccc4nc(C)cc(N)c4c3)ccc2n1`, the Ki (1PWP A) is listed as 0.5 µM.
In the case of `CC(C)N1CCC(NC(=O)c2cc3ccccc3n2CC(=O)Nc2ccc(Cl)cc2)CC1`, the Ki (coagulation factor x) is listed as 0.003 µM.
In the case of `N[C@H](CCC(=O)N[C@@H](CS)C(=O)NCC(=O)O)C(=O)O`, the Kd [8] is listed as 22 µM.
In the case of `CO[C@H]1C[C@@H]2CC[C@@H](C)[C@@](O)(O2)C(=O)C(=O)N2CCCC[C@H]2C(=O)O[C@H]([C@H](C)C[C@@H]2CC[C@@H](O)[C@H](OC)C2)CC(=O)[C@H](C)/C=C(\C)[C@@H](O)[C@@H](OC)C(=O)[C@H](C)C[C@H](C)/C=C/C=C/C=C/1C`, the Kd (FK506 binding protein) is given as 0.0002 µM.
For `CC(C)C[C@H](N)C(=O)O`, the Kd [9] is listed as 0.4 µM.
For `NCCCCc1ccccc1`, the Kd (trypsinogen) is given as 36000 µM.
In the case of `Nc1n[nH]c(N)c1N=Nc1ccc(O)cc1`, the Ki ([7]; Ki when reported) is listed as 13.3 µM.
In the case of `O=C(Cc1cccs1)N[C@H]([Al])c1cccc(C(=O)O)c1`, the Ki (beta-lactamase) is given as 0.001 µM.
For `O=c1ccc2c([nH]1)CCC[C@@H]2NCCCCCCCCCCCCN[C@H]1CCCc2[nH]c(=O)ccc21`, the Ki (acetylcholinesterase; Ki when reported) is given as 0.0045 µM.
For `O=S(=O)(Nc1ccc(O)c(-c2c(O)ccc3ccccc23)c1)c1cc(Cl)ccc1Cl`, the IC50 [1] is given as 0.7 µM.
In the case of `O=C[C@H]1CCCN1`, the Ki (chitinase b) is given as 650 µM.
For `CC(C)N1CCC(NC(=O)c2cc3ccccc3n2Cc2cc(-c3ccc(Cl)s3)on2)CC1`, the Ki (coagulation factor xa) is given as 0.003 µM.
In the case of `CO[C@H]1CCCC[C@@H](c2ccccc2)OC(=O)[C@@H](C)[C@@]2(O)O[C@H]([C@@H](C)[C@H](O)[C@H]2OC)[C@@H](C)/C=C/[C@H]1OC`, the Kd [10] is listed as 0.0039 µM.
In the case of `O=P(O)(O)O[C@@H]1[C@H](O)[C@H](O)[C@@H](OP(=O)(O)O)[C@H](OP(=O)(O)O)[C@H]1O`, the Kd (epsin) is listed as 3.6 µM.
For `Cc1cc2nc3[nH]c(=O)[nH]c(=O)c3nc2cc1C`, the Kd (dodecin) is given as 0.00988 µM.
For `CN(C)C[C@@H](O)COc1ccc(Nc2ncc(Br)c(Nc3ccccc3)n2)cc1`, the IC50 [7] is listed as 28 µM.
In the case of `N[C@H]1CCOC1=O`, the Ki (aiia-like protein) is given as 1100 µM.
In the case of `CC(=O)N[C@@H](CCCN=C(N)N)C(=O)N[C@H]1CCCCNC(=O)CNC(=O)[C@H](Cc2ccccc2)NC(=O)[C@H](CC(C)C)NC1=O`, the IC50 [7] is given as 19.2 µM.
For `Cc1nc(C)c(-c2ccnc(N)n2)s1`, the IC50 [7] is given as 6.5 µM.
In the case of `COc1ccc2c3c1O[C@H]1C[C@@H](O)C=C[C@@]31CC[N+](CCCCCCCCN1C(=O)c3ccccc3C1=O)=C2`, the IC50 (acetylcholinesterase) is listed as 0.004 µM.
For `O=P(O)(O)OC1[C@H](O)[C@H](OP(=O)(O)O)C(OP(=O)(O)O)[C@H](OP(=O)(O)O)[C@H]1O` (stereo partly specified), the Ki [11] is given as 0.3 µM.
In the case of `O=C(c1c2ccccc2cc2ccccc12)N1CCC(N2CCC[C@@H](C(=O)N3CCOCC3)C2)CC1`, the Kd (acetyl-coa carboxylase) is listed as 7.2 µM.
In the case of `O=C(O)c1ccccc1`, the Ki [12] is given as 3300 µM.
